From US11530198B2, “Compositions and methods for treating infections” (priority 2016, dated 2022)

The chains behind the UniProt entries cited, without tags or fusion partners. Where a name states a change or a piece, a line headed by the entry shows the natural chain unless it says otherwise.
UniProt P00374: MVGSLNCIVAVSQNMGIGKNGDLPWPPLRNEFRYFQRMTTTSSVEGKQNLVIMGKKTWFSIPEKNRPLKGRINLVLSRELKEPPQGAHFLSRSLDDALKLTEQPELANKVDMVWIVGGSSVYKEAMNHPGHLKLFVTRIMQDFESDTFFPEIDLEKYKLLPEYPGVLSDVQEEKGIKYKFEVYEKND

What was measured:
hDHFR = hDHFR (Homo sapiens (Human), UniProt P00374); assay: DHFR inhibition assay (diaphorase/resazurin coupled, fluorescence of resorufin), human DHFR; format: biochemical; details: Table 11
T. gondii DHFR (tgDHFR) = T. gondii DHFR (tgDHFR) (Toxoplasma gondii, UniProt Q07422); details: for Average DHFR selectivity (h/tg): hDHFR IC50/tgDHFR IC50
T. cruzi DHFR (tcDHFR) = T. cruzi DHFR (tcDHFR) (Trypanosoma cruzi, UniProt Q27793); assay: DHFR inhibition assay (diaphorase/resazurin coupled), T. cruzi DHFR; format: biochemical; details: hDHFR IC50/tcDHFR IC50
L. major DHFR (1mDHFR) = L. major DHFR (1mDHFR) (Leishmania major, UniProt P07382); format: biochemical; details: hDHFR IC50/L. major DHFR IC50
T. brucei DHFR (tbDHFR) = T. brucei DHFR (tbDHFR) (Trypanosoma brucei brucei, UniProt Q27783); assay: DHFR inhibition assay (diaphorase/resazurin coupled), T. brucei DHFR; format: biochemical

Row | Structure (SMILES) | Average DHFR selectivity (h/tg) (T. gondii DHFR (tgDHFR)) | other results
1 | Nc1ncc(N2CCN(c3cccc(-c4ccccc4)c3)CC2)c(N)n1 [Compound 2, 5-(4-([1,1′-biphenyl]-3-yl)piperazin-1-yl)pyrimidine-2,4-diamine] | 78.60 | hDHFR pIC50-DHFR primary assay (hDHFR): 6.16; tgDHFR pIC50-DHFR primary assay (T. gondii DHFR (tgDHFR); Table 11, T. gondii DHFR): 8.06
2 | Nc1ncc(N2CCN(c3cccc(C(F)(F)F)c3)CC2)c(N)n1 [Compound 3, 5-(4-(3-(trifluoromethyl)phenyl)piperazin-1-yl)pyrimidine-2,4-diamine] | 8.71 | –
3 | Nc1ncc(N2CCN(c3ccc(Cl)cc3)CC2)c(N)n1 [Compound 6, 5-(4-(4-chlorophenyl)piperazin-1-yl)pyrimidine-2,4-diamine] | 23.71 | Average DHFR selectivity (h/tc) (T. cruzi DHFR (tcDHFR)): 150; Average DHFR selectivity (h/lm)*-DHFR IC50 (L. major DHFR (1mDHFR)): 65
4 | Cc1cccc(N2CCN(c3cnc(N)nc3N)CC2)c1 [Compound 7, 5-(4-(m-tolyl)piperazin-1-yl)pyrimidine-2,4-diamine] | 79.43 | –
5 | Nc1ncc(N2CCN(c3cccc(C4CC4)c3)CC2)c(N)n1 [Compound 66, 5-(4-(3-cyclopropylphenyl)piperazin-1-yl)pyrimidine-2,4-diamine] | 56.23 | –
6 | Nc1ncc(N2CCN(c3cccc(-c4ccnnc4)c3)CC2)c(N)n1 [Compound 73, 5-(4-(3-(pyridazin-4-yl)phenyl)piperazin-1-yl)pyrimidine-2,4-diamine] | 184.08 | Average DHFR selectivity (h/lm)*-DHFR IC50 (L. major DHFR (1mDHFR)): 44
7 | Nc1ncc(N2CCN(c3cccc(-c4cncnc4)c3)CC2)c(N)n1 [Compound 74, 5-(4-(3-(pyrimidin-5-yl)phenyl)piperazin-1-yl)pyrimidine-2,4-diamine] | 302.00 | Average DHFR selectivity (h/tb)*-DHFR IC50 (T. brucei DHFR (tbDHFR)): 550
8 | Nc1ncc(N2CCN(c3cccc(-c4ncccn4)c3)CC2)c(N)n1 [Compound 103, 5-(4-(3-(pyrimidin-2-yl)phenyl)piperazin-1-yl)pyrimidine-2,4-diamine] | 47.50 | –
9 | Nc1ncc(N2CCN(c3cccc(-c4cnccn4)c3)CC2)c(N)n1 [Compound 104, 5-(4-(3-(pyrazin-2-yl)phenyl)piperazin-1-yl)pyrimidine-2,4-diamine] | 129.32 | –
